What is called Emax is the size of the effect at its maximum, as opposed to the concentration needed.

Sequences of proteins named here, by UniProt entry; tags and fusion partners are left off.
UniProt Q12879, whole entry, looked up: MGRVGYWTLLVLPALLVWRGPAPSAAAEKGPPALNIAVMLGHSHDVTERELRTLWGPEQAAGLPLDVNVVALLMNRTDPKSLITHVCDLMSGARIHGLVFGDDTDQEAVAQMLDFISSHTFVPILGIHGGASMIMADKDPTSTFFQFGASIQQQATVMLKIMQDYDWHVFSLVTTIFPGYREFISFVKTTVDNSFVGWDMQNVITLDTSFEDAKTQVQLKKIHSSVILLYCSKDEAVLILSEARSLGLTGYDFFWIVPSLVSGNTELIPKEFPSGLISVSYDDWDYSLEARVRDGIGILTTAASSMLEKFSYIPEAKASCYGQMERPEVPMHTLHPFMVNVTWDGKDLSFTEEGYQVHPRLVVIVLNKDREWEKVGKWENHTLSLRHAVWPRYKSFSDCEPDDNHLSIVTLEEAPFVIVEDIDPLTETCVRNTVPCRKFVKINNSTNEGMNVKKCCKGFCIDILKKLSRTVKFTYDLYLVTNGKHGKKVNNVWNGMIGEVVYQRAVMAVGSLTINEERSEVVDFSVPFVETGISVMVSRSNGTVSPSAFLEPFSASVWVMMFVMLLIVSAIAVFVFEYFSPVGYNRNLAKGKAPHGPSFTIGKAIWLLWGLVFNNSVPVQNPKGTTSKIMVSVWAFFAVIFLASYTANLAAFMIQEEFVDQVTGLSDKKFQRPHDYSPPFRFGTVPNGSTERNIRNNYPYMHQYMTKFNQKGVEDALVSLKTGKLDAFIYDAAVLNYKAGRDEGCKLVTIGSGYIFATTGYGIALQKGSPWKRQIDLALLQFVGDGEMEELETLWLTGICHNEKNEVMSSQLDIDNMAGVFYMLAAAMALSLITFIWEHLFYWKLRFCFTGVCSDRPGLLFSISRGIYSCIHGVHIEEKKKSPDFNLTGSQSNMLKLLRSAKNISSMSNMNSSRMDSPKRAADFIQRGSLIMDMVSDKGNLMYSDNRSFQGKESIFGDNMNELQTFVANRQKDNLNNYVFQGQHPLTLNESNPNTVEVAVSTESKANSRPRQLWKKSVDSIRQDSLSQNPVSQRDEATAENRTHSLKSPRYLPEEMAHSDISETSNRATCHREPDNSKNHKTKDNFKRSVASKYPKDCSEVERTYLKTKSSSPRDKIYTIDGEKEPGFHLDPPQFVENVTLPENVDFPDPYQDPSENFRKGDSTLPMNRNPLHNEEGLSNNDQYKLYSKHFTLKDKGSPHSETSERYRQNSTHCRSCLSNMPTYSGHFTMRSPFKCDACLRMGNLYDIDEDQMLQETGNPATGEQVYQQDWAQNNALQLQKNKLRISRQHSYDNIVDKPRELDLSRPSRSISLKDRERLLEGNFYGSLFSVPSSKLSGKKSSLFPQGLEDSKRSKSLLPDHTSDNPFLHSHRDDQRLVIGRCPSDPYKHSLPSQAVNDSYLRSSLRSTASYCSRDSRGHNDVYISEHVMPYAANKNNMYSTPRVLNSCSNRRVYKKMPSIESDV
UniProt Q13224, whole entry, looked up: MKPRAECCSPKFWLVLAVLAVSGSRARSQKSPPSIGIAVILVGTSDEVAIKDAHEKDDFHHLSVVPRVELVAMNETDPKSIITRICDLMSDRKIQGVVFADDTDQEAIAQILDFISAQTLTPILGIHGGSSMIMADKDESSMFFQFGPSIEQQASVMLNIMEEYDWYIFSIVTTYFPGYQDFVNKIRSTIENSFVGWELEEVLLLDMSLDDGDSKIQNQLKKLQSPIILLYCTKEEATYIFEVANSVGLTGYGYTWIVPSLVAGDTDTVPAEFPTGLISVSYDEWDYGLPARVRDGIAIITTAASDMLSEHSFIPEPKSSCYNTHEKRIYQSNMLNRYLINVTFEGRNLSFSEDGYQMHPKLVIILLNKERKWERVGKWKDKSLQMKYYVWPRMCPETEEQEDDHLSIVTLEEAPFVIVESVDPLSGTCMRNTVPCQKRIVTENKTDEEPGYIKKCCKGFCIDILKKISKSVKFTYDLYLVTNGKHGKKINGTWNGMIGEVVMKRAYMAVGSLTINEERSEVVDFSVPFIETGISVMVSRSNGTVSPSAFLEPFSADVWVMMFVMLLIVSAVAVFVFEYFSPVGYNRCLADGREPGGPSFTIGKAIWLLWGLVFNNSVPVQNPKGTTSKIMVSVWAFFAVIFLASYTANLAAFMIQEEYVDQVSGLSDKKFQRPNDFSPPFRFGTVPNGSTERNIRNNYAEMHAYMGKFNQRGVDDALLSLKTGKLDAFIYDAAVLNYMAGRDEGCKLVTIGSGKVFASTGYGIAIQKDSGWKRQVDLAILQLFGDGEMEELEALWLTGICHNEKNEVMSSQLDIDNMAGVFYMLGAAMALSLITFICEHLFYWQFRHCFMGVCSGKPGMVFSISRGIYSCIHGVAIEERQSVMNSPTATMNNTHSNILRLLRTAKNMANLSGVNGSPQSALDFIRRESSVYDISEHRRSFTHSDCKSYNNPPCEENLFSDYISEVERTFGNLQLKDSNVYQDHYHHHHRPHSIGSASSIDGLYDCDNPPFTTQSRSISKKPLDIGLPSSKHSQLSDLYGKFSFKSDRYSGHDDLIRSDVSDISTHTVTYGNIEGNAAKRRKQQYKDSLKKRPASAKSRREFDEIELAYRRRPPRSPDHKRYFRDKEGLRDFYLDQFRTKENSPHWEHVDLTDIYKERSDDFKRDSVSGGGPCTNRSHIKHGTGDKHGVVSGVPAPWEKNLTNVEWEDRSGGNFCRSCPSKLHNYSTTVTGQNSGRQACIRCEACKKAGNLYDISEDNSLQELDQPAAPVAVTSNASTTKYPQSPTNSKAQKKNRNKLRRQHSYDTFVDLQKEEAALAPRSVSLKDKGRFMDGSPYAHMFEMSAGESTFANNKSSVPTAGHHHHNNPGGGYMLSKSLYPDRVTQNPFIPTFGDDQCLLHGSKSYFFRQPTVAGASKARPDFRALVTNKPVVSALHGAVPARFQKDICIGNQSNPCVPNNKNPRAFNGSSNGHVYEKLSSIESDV

Data on 3 compounds can be found in ChEMBL document CHEMBL5131569, “SAGE-718: A First-in-Class N-Methyl-d-Aspartate Receptor Positive Allosteric Modulator for the Potential Treatment of Cognitive Impairment” (J Med Chem, 2022).

The target in assay [1] is Glutamate NMDA receptor; GRIN1/GRIN2A (Homo sapiens, UniProt Q05586+Q12879). Nature of the assay: Positive allosteric modulation of recombinant human GluN1/GluN2A receptor stably expressed in HEK293 cells assessed as increase in glycine/L-glutamate-induced channel current at -70 mV holding potential by whole cell patch clamp method relative to control. The class given is cell-based. The settings on record: filed as positive allosteric modulator.

Assay [2] has as its target Glutamate NMDA receptor; GRIN1/GRIN2B (Homo sapiens, UniProt Q05586+Q13224). Nature of the assay: Positive allosteric modulation of recombinant human GluN1/GluN2B receptor stably expressed in HEK293 cells assessed as increase in glycine/L-glutamate-induced channel current at -70 mV holding potential by whole cell patch clamp method relative to control. The class given is cell-based. The conditions noted are these: filed as positive allosteric modulator. A general note: Patch clamp records ionic current or voltage across a cell membrane.

Take `C[C@H](CC[C@](C)(O)C(F)(F)F)[C@H]1CC[C@H]2[C@@H]3CC=C4C[C@@](C)(O)CC[C@]4(C)[C@H]3CC[C@]12C` [DALZANEMDOR]: the results for the Emax in assay [1] and in assay [2] were 310% and 370%, respectively.

With `C[C@H](CC[C@](C)(O)C(F)(F)F)[C@H]1CC[C@H]2[C@@H]3CC=C4C[C@](C)(O)CC[C@]4(C)[C@H]3CC[C@]12C`, the Emax in assay [1] turned out to be 220%; in assay [2] it was 210%.

As to `C[C@H](CC[C@@](C)(O)C(F)(F)F)[C@H]1CC[C@H]2[C@@H]3CC=C4C[C@@](C)(O)CC[C@]4(C)[C@H]3CC[C@]12C`, the figures for the Emax in assay [1] and in assay [2] were 210% and 200%, respectively.
